{"sequences": {"note": "The chains behind the UniProt entries cited, without tags or fusion partners. Where a name states a change or a piece, a line headed by the entry shows the natural chain unless it says otherwise.", "UniProt Q01726": "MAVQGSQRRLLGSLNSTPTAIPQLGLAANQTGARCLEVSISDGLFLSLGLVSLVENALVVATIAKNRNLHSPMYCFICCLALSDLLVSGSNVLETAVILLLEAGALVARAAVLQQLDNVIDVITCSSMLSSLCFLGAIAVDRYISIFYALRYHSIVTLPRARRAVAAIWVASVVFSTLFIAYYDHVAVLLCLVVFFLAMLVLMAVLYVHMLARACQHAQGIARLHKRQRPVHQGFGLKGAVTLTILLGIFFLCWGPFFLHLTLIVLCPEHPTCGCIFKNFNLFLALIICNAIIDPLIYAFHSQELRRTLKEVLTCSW"}, "source": "patent US11286288B2", "about": "“Pharmaceutical compound” (VALLAURIX PTE. LTD., priority 2015, dated 2022)", "molecular_target": "T1, MC1R (Homo sapiens, UniProt Q01726)", "T1 construct": "human melanocyte cultures, coded 1750 and 1753, that were derived from 2 different donors expressing functional MC1R; endogenous in cells; host or cells: primary human melanocyte cultures 1750 and 1753 (two donors)", "test": "cAMP radioimmunoassay in human melanocyte culture 1753", "assay_type": "cell-based", "conditions": "Test 3, melanocytes 1753, at 10^-7 M, 1 hour treatment, p<0.05", "method": "Compounds 1, 2, 3 and 4 were tested in various separate tests and using 2 different human melanocyte cultures, coded 1750 and 1753, that were derived from 2 different donors expressing functional MC1R. The melanocytes were plated at a density of 0.3*10^6 cells/well. After 48 hours, the melanocytes were treated with the different compound concentrations for 1 hour. Controls without compound were included in all experiments. In some experiments reference compound NDP-MSH was included. The reaction was stopped by addition of 50 μl N HCl and the supernatant in each well was used to measure cAMP using a radioimmunoassay as described by Suzuki 1996 (Suzuki I, Cone R D, Im S, Nordlund ii, Abdel-Malek Z: “Binding of melanotropic hormones to the MC1 receptor on human melanocytes stimulates proliferation and melanogenesis”. Endocrinology 137: 1627-1633, 1996). Duplicate samples from each well were assayed with triplicate wells included in each compound group. The results from different tests cannot be compared due to differences in melanocyte cultures and to different passage number. The mean of 6 cAMP measurements per group was expressed as % of the control group. Statistical analysis was carried out using ANOVA followed by Newman Kuels test. In some cases, unpaired t-test was used.", "data": [{"substance": "NDP-MSH [reference compound]", "values": [{"measurement": "cAMP, highest efficacy, % of the control group", "value": 202, "unit": "%"}]}]}
